Laboratory results reported in ChEMBL document CHEMBL1125788, “Synthesis and ocular antihypertensive activity of new imidazolidine derivatives containing a beta-blocking side chain” (J Med Chem, 1991).

Biological target: T1, Alpha-1A adrenergic receptor (Rattus norvegicus, UniProt P43140)
T1 sequence (P43140 whole entry): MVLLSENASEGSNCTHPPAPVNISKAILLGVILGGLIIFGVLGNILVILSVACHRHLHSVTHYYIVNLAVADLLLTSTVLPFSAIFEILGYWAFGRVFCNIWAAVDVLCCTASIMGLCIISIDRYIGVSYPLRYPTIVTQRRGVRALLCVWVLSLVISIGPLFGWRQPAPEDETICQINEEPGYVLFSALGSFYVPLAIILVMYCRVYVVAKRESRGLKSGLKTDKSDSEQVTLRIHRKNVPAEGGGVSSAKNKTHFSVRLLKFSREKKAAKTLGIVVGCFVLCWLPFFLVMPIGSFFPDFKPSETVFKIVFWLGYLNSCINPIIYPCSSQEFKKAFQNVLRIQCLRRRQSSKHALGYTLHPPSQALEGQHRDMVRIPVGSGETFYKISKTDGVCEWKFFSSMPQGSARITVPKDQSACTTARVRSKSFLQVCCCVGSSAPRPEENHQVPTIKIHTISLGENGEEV
Experiment: The compound was tested for alpha-adrenergic activity against Alpha-1 adrenergic receptor from rat aorta.
Settings: read-out: pA2 (converted)
Summary of the method: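 Isolated rat aorta strips at 2 g resting tension, stabilized about 1 h. Beta-receptors blocked with propranolol 10^-6 mol/L for 30 min. Cumulative norepinephrine curve (10^-10 to 10^-7 mol/L) with ascorbic acid 1.13 × 10^-6 mol/L present. ED50 by Ariens–Van Rossum. Intrinsic activity = maximum response relative to norepinephrine. Antagonism as pA2 (Schild) or, if non-competitive, pD'2.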

SMILES: Clc1cccc(Cl)c1N=C1NCCN1 [CLONIDINE]
- Kb: 257 nM
